Experimental data as given in patent US6528675B1, “Cyanohydrin ethers and esters as high-sensitivity enzyme substrates” (The Regents of the University of California, priority 2001, dated 2003).

Test: Change in optical properties, UV absorption of esters and hydrolysis products
Format: physicochemical
Conditions: for ε (molar absorptivity): in M-1 cm-1 (unit assumed)
From the text: The substrates representing the invention were (R/S)-acetic acid cyano-(6-methoxynaphthalen-2-yl)-methyl ester (the title compound of Synthesis Example 1 above) and (trans/cis)-3-(2,2-dichlorovinyl)-2,2-dimethylcyclopropanecarboxylic acid cyano-(6-methoxynaphthalen-2-yl)-methyl ester (the title compound of Synthesis Example 2 above).

OD (optical density) (tris-maleate pH 6.5, 10 μM): 0.105
ε (molar absorptivity) (tris-maleate pH 6.5, 10 μM): 2,600
OD (optical density) (tris-maleate pH 7.5, 10 μM): 0.155
λmax (tris-maleate pH 7.5, 10 μM): 284 nm
ε (molar absorptivity) (tris-maleate pH 7.5, 10 μM): 3,870
OD (optical density) (tris-maleate pH 8.5, 10 μM): 0.170
λmax (tris-maleate pH 8.5, 10 μM): 283 nm
ε (molar absorptivity) (tris-maleate pH 8.5, 10 μM): 4,250
Substance: naphthol
